Protein sequences, listed by entry. Tags and fused reporters are not part of them. Residues count along the entry.
UniProt Q13191, 40-426: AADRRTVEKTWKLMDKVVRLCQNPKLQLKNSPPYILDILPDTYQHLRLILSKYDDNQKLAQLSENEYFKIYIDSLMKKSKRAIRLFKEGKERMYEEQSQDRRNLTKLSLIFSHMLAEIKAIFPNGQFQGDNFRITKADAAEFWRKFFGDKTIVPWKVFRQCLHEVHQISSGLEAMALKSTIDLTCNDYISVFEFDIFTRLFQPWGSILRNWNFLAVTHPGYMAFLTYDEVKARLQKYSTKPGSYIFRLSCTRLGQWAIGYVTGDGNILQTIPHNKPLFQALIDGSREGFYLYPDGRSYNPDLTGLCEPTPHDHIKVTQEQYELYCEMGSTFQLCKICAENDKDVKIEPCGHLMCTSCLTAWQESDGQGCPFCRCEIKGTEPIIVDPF

According to patent US20250230147A1, “LACTAMS AS CBL-B INHIBITORS” (Genentech, Inc., priority 2021, published 2025):

Legend:
[1] = In vitro permeability assay in gMDCK cells; type: in vitro ADME, canine; settings: dog, MDCK, 3 hour incubation, read-out: gMDCK (ratio): efflux ratio Papp, B-A/Papp, A-B
Protocol: Four days prior to use, MDCK cells were seeded at a density of 2.5×10^5 cells/mL in 24 well plates. Compounds were dissolved in transport buffer consisting of Hank's Balanced Salt Solution with 10 mM HEPES (Invitrogen Corporation, Grand Island, NY) at a concentration of 10 μM, and permeability was assessed in the apical to basolateral (A-B) and basolateral to apical (B-A) directions following a 3 hour incubation. Lucifer Yellow (Sigma Aldrich, St. Louis, MO) was used as the cell monolayer integrity marker. Test compound concentrations in the donor and receiving compartments were determined by LC-MS/MS. The apparent permeability (Papp) of test compounds was determined as follows:
Where dQ/dt is the rate of compound appearance in the receiver compartment, Q is the quantity of compound), C0 is the concentration in the donor compartment and A is the surface area of the insert. Efflux ratio was calculated as Papp, B-A/Papp, A-B.

c-Cbl = c-Cbl (Homo sapiens (Human), UniProt P22681); assay: C-Cbl LCK Ub TR-FRET assay (c-cbl Lck HTRF); type: biochemical; settings: C-cbl Lck HTRF IC50 relative to Cbl-b Lck HTRF IC50
Protocol: 6 μL of detection mixture was added to all wells and briefly centrifuged before incubating for 20 min at room temperature. […] IC50 was generated using no LCK as the low control and DMSO as the high control.

Cbl-b = Cbl-b (Homo sapiens (Human), UniProt Q13191); assay: Cbl-b LCK Ub TR-FRET assay (Cbl-b Lck HTRF); type: biochemical; settings: Cbl-b over c-Cbl, Lck HTRF IC50
Protocol: Compounds were 3-fold serially diluted in DMSO in a 384-well polypropylene plate (#P-05525-BC; Labcyte) to generate a source plate with 10 concentrations of each compound, top concentration=2 mM. 80 nL of DMSO or compounds were transferred to each well of a black 384-well ProxiPlate (#6008260; PerkinElmer) using a Labcyte Echo. 1×assay buffer (50 mM HEPES pH7.0, 100 mM NaCl, 0.01% BSA, 0.01% Triton-X100, 1 mM DTT), 2×enzyme solution (16 nM Biotin-Cbl-b or 12 nM Biotin-c-Cbl in 1× assay buffer), 2×kinase mixture (120 nM His-LCK, 1 mM ATP, 10 mM MgCl2 in assay buffer) and 2.33×detection mixture (4.66×solution 1: 163 nM Anti-HA-D2 antibody (#610HADAB; PerkinElmer), 27.96 nM Streptavidin-EU (#AD0062; PerkinElmer), 1.398 mM EDTA in 1×assay buffer+4.66×solution 2: 2.796 μM UBE2D2/Methylated-HA-Ubiquitin thioester adduct (BostonBiochem) in 1×assay buffer) were prepared. 4 μL of 2× enzyme solution was added to each well containing compound, briefly centrifuged to mix, and incubated for 60 min at room temperature. 4 μL of 2× kinase mixture was added, briefly centrifuged to mix, and incubated for 90 min. at room temperature. […] Plates were read for TR-FRET using an Envision at excitation 340 nm, emission at 615 and 665 nm, 4 flashes per well. […]
Cbl-b Lck HTRF data in Table 7 is measured according to Example 76 herein; C-cbl Lck HTRF data is measured according to Example 76 herein.

fold of selectivity (Cbl-b) [x] | SMILES | efflux ratio at 3 h, 10 μM [1] | (fold-selectivity) (c-Cbl)
 | Cn1cnnc1[C@H](F)C1(c2cccc(N3Cc4c(cc(CN5CCC6(CC6)C5)cc4C(F)(F)F)C3=O)c2)CC1 [Compound 27, (R)-6-(5-azaspiro[2.4]heptan-5-ylmethyl)-2-(3-(1-(fluoro(4-methyl-4H-1,2,4-triazol-3-yl)methyl)cyclopropyl)phenyl)-4-(trifluoromethyl)isoindolin-1-one] | 0.64 | 1.6x
3.6 | Cn1cnnc1[C@@H](F)[C@](C)(F)c1cccc(N2Cc3c(cc(CN4CCC5(CC5)C4)cc3C(F)(F)F)C2=O)c1 [Compound 129, 6-(5-azaspiro[2.4]heptan-5-ylmethyl)-2-(3-((1R,2R)-1,2-difluoro-1-(4-methyl-4H-1,2,4-triazol-3-yl)propan-2-yl)phenyl)-4-(trifluoromethyl)isoindolin-1-one] |  | 
 | Cn1cnnc1[C@H](F)[C@](C)(F)c1cccc(N2Cc3c(cc(CN4CCC5(CC5)C4)cc3C(F)(F)F)C2=O)c1 [Compound 127, 6-(5-azaspiro[2.4]heptan-5-ylmethyl)-2-(3-((1S,2R)-1,2-difluoro-1-(4-methyl-4H-1,2,4-triazol-3-yl)propan-2-yl)phenyl)-4-(trifluoromethyl)isoindolin-1-one] | 0.72 | 2.2x
 | CN1CC2CC(C1)N2Cc1cc2c(c(C(F)(F)F)c1)CN(c1cccc(C3(Cc4nncn4C)CC(F)(F)C3)c1)C2=O.O=CO [Compound 413, 2-(3-(3,3-difluoro-1-((4-methyl-4H-1,2,4-triazol-3-yl)methyl)cyclobutyl)phenyl)-6-((3-methyl-3,6-diazabicyclo[3.1.1]heptan-6-yl)methyl)-4-(trifluoromethyl)isoindolin-1-one formate] |  | (0.90x)
 | CC(C)[C@H]1CN(C)CCN1Cc1cc2c(c(C(F)(F)F)c1)CN(c1cc(C3(Cc4nncn4C)COC3)cc(NC3CCCC3)n1)C2=O.O=CO [Compound 297, (S)-2-(6-(cyclopentylamino)-4-(3-((4-methyl-4H-1,2,4-triazol-3-yl)methyl)oxetan-3-yl)pyridin-2-yl)-6-((2-isopropyl-4-methylpiperazin-1-yl)methyl)-4-(trifluoromethyl)isoindolin-1-one formate] |  | (0.87x)
 | CC(C)NCc1cc2c(c(C(F)(F)F)c1)CN(c1cccc(C3([C@@H](F)c4nncn4C)COC3)c1)C2=O.O=CO [Compound 226, (R)-2-(3-(3-(fluoro(4-methyl-4H-1,2,4-triazol-3-yl)methyl)oxetan-3-yl)phenyl)-6-((isopropylamino)methyl)-4-(trifluoromethyl)isoindolin-1-one formate] |  | (1.1x)
